Assay results published in patent publication US8772480B2, “Inhibitors of PI3 kinase and/or mTOR” (priority 2009, dated 2014).

Each compound was assayed against mammalian target of rapamycin (mTOR) (Homo sapiens (Human), UniProt P42345). Settings: read-out: mTOR IC50.
For `COc1ncc(Nc2ncc([C@@H](C)N3CCN(S(C)(=O)=O)C[C@@H]3C)cc2-c2nc(C)nc3[nH]cnc23)cc1F` [Example 295, N-(5-Fluoro-6-Methoxypyridin-3-yl)-5-((R)-1-((S)-2-Methyl-4-(Methylsulfonyl)Piperazin-1-yl)Ethyl)-3-(2-Methyl-9H-Purin-6-yl)Pyridin-2-Amine], the IC50 was greater than 10 µM. With `COc1ncc(Nc2ncc([C@H](C)N3CCN(S(C)(=O)=O)C[C@@H]3C)cc2-c2nc(C)nc3[nH]cnc23)cc1F` [Example 296, N-(5-Fluoro-6-Methoxypyridin-3-yl)-5-((S)-1-((S)-2-Methyl-4-(Methylsulfonyl)Piperazin-1-yl)Ethyl)-3-(2-Methyl-9H-Purin-6-yl)Pyridin-2-Amine] the IC50 was greater than 10 µM. `COc1ncc(Nc2ncc([C@@H](C)N3CCN(S(C)(=O)=O)CC3)cc2-c2nc(C)nc3[nH]cnc23)cc1F` [Example 297, (R)—N-(5-Fluoro-6-Methoxypyridin-3-yl)-3-(2-Methyl-9H-Purin-6-yl)-5-(1-(4-(Methylsulfonyl)Piperazin-1-yl)Ethyl)Pyridin-2-Amine] showed an IC50 greater than 10 µM. In the case of `COc1ncc(Nc2ncc(C3(O)CC3)cc2-c2nc(C)nc(N)n2)cc1F` [Example 298, 1-(5-(4-Amino-6-Methyl-1,3,5-Triazin-2-yl)-6-(5-Fluoro-6-Methoxypyridin-3-Ylamino)Pyridin-3-yl)Cyclopropanol], the IC50 is reported as 0.242 µM. With `COc1ncc(Nc2ncc(C(C)NC(C)C)cc2-c2nc(C)nc(N)n2)cc1F` (stereo not shown) [Example 299, 4-(2-(5-Fluoro-6-Methoxypyridin-3-Ylamino)-5-(1-(Isopropylamino)Ethyl)Pyridin-3-yl)-6-Methyl-1,3,5-Triazin-2-Amine] the IC50 was greater than 10 µM. In the case of `COc1ncc(Nc2ncc(C3(N)CC3)cc2-c2nc(C)nc(N)n2)cc1F` [Example 300, 4-(5-(1-Aminocyclopropyl)-2-(5-Fluoro-6-Methoxypyridin-3-Ylamino)Pyridin-3-yl)-6-Methyl-1,3,5-Triazin-2-Amine], the IC50 is reported as greater than 10 µM. Compound `CCC(N)(CC)c1cnc(Nc2cnc(OC)c(F)c2)c(-c2nc(C)nc(N)n2)c1` [Example 301, 4-(5-(3-Aminopentan-3-yl)-2-(5-Fluoro-6-Methoxypyridin-3-Ylamino)Pyridin-3-yl)-6-Methyl-1,3,5-Triazin-2-Amine] has an IC50 of 4.88 µM. For `COc1ncc(Nc2ncc([C@@H](C)N3CCN(S(C)(=O)=O)CC3)cc2-c2nc(C)nc(N)n2)cc1C(C)C` [Example 302, (R)-4-(2-(5-Isopropyl-6-Methoxypyridin-3-Ylamino)-5-(1-(4-(Methylsulfonyl)Piperazin-1-yl)Ethyl)Pyridin-3-yl)-6-Methyl-1,3,5-Triazin-2-Amine], the IC50 was greater than 10 µM. `CCS(=O)(=O)c1cnc(Nc2cnc(OC)c(F)c2)c(-c2nc(C)nc(N)n2)c1` [Example 303, 4-(5-(ethylsulfonyl)-2-(5-fluoro-6-methoxypyridin-3-ylamino)pyridin-3-yl)-6-methyl-1,3,5-triazin-2-amine] was tested, and the IC50 was greater than 10 µM. In the case of `Cc1nc(N)cc(-c2cccnc2Nc2cnc(Cl)c(NS(C)(=O)=O)c2)n1` [Example 304, N-(5-((3-(6-amino-2-methyl-4-pyrimidinyl)-2-pyridinyl)amino)-2-chloro-3-pyridinyl)methanesulfonamide], the IC50 is reported as 0.444 µM. `COc1ncc(Nc2ncc([C@@H](C)N3CCN(S(C)(=O)=O)CC3)cc2-c2cc(N)nc(C)n2)cc1F` [Example 305, 6-(2-((5-fluoro-6-methoxy-3-pyridinyl)amino)-5-((1R)-1-(4-(methylsulfonyl)-1-piperazinyl)ethyl)-3-pyridinyl)-2-methyl-4-pyrimidinamine] showed an IC50 greater than 10 µM. Compound `COc1ncc(Nc2ncc([C@@H](C)N3CCN(S(C)(=O)=O)C[C@@H]3C)cc2-c2cc(N)nc(C)n2)cc1F` [Example 306, 6-(2-((5-fluoro-6-methoxy-3-pyridinyl)amino)-5-((1R)-1-((2S)-2-methyl-4-(methylsulfonyl)-1-piperazinyl)ethyl)-3-pyridinyl)-2-methyl-4-pyrimidinamine] has an IC50 greater than 10 µM. Compound `Cc1nc(N)cc(-c2nccnc2Nc2cnc(Cl)c(NS(C)(=O)=O)c2)n1` [Example 307, N-(5-((3-(6-amino-2-methyl-4-pyrimidinyl)-2-pyrazinyl)amino)-2-chloro-3-pyridinyl)methanesulfonamide] has an IC50 of 3.88 µM. Work on `COc1ccc(Nc2ncc(C(C)N3CC(S(C)(=O)=O)C3)cc2-c2nc(C)nc(N)n2)cn1` (stereo not shown) [Example 308, 4-(2-(6-methoxypyridin-3-ylamino)-5-(1-(3-(methylsulfonyl)azetidin-1-yl)ethyl)pyridin-3-yl)-6-methyl-1,3,5-triazin-2-amine 2,2,2-trifluoroacetate] yielded an IC50 of 1.89 µM. Compound `Cc1nc(N)nc(-c2cc([C@@H](C)N3CCN(S(C)(=O)=O)CC3)cnc2Nc2ccc(Cl)nc2)n1` [Example 309, (R)-4-(2-(6-chloropyridin-3-ylamino)-5-(1-(4-(methylsulfonyl)piperazin-1-yl)ethyl)pyridin-3-yl)-6-methyl-1,3,5-triazin-2-amine] has an IC50 of 2.67 µM. For `Cc1nc(N)nc(-c2cc([C@@H](C)N3CCN(S(C)(=O)=O)CC3)cnc2Nc2ccc3cccnc3c2)n1` [Example 310, (R)—N-(3-(4-amino-6-methyl-1,3,5-triazin-2-yl)-5-(1-(4-(methylsulfonyl)piperazin-1-yl)ethyl)pyridin-2-yl)quinolin-7-amine 2,2,2-trifluoroacetate], the IC50 was 0.127 µM. `COc1ncc(Nc2ncc(C(C)(C)CO)cc2-c2nc(C)nc(N)n2)cc1F` [Example 311, 2-(5-(4-amino-6-methyl-1,3,5-triazin-2-yl)-6-(5-fluoro-6-methoxypyridin-3-ylamino)pyridin-3-yl)-2-methylpropan-1-ol] gave an IC50 greater than 10 µM. `COc1ncc(Nc2ncc(C(C)CO)cc2-c2nc(C)nc(N)n2)cc1F` (stereo not shown) [Example 312, 2-(5-(4-amino-6-methyl-1,3,5-triazin-2-yl)-6-(5-fluoro-6-methoxypyridin-3-ylamino)pyridin-3-yl)propan-1-ol] gave an IC50 greater than 10 µM. With `COc1ncc(Nc2ncc(CN3CCN(S(C)(=O)=O)CC3C(F)(F)F)cc2-c2nc(C)nc(N)n2)cc1F` (stereo not shown) [Example 313, 4-(2-(5-Fluoro-6-Methoxypyridin-3-Ylamino)-5-((4-(Methylsulfonyl)-2-(Trifluoromethyl)Piperazin-1-yl)Methyl)Pyridin-3-yl)-6-Methyl-1,3,5-Triazin-2-Amine] the IC50 was greater than 10 µM. `COc1ncc(Nc2ncc(C(O)C(F)(F)F)cc2-c2nc(C)nc(N)n2)cc1F` (stereo not shown) [Example 314, 1-(5-(4-Amino-6-Methyl-1,3,5-Triazin-2-yl)-6-(5-Fluoro-6-Methoxypyridin-3-Ylamino)Pyridin-3-yl)-2,2,2-Trifluoroethanol] showed an IC50 of 2.23 µM. With `COc1ncc(Nc2ncc(CN3CCOC[C@@H]3C)cc2-c2nc(C)nc(N)n2)cc1F` [Example 315, (S)-4-(2-(5-Fluoro-6-Methoxypyridin-3-Ylamino)-5-((3-Methylmorpholino)Methyl)Pyridin-3-yl)-6-Methyl-1,3,5-Triazin-2-Amine] the IC50 was greater than 10 µM. `COc1cc(Nc2ncc(CN3CCN(S(C)(=O)=O)C[C@@H]3C)cc2-c2nc(C)nc(N)n2)cnc1Cl` [Example 317, (S)-4-(2-(6-Chloro-5-Methoxypyridin-3-Ylamino)-5-((2-Methyl-4-(Methylsulfonyl)Piperazin-1-yl)Methyl)Pyridin-3-yl)-6-Methyl-1,3,5-Triazin-2-Amine] was tested, and the IC50 was greater than 10 µM. `Cc1nc(N)nc(-c2cc(CN3CCN(S(C)(=O)=O)C[C@@H]3C)cnc2Nc2ccc(Cl)nc2)n1` [Example 318, (S)-4-(2-(6-Chloropyridin-3-Ylamino)-5-((2-Methyl-4-(Methylsulfonyl)Piperazin-1-yl)Methyl)Pyridin-3-yl)-6-Methyl-1,3,5-Triazin-2-Amine] showed an IC50 greater than 10 µM. In the case of `COc1ncc(Nc2ncc(CN3CCN(S(C)(=O)=O)C[C@@H]3C)cc2-c2nc(C)nc(N)n2)cn1` [Example 319, (S)-4-(2-(2-Methoxypyrimidin-5-Ylamino)-5-((2-Methyl-4-(Methylsulfonyl)Piperazin-1-yl)Methyl)Pyridin-3-yl)-6-Methyl-1,3,5-Triazin-2-Amine], the IC50 is reported as 1.58 µM. In the case of `COc1ccc(Nc2ncc(C(C)(O)C(F)(F)F)cc2-c2nc(C)nc(N)n2)cn1` (stereo not shown) [Example 320, 2-(5-(4-amino-6-methyl-1,3,5-triazin-2-yl)-6-(6-methoxypyridin-3-ylamino)pyridin-3-yl)-1,1,1-trifluoropropan-2-ol], the IC50 is reported as 0.263 µM. For `COc1ccc(Nc2ncc(C(N3CCN(S(C)(=O)=O)CC3)C(F)(F)F)cc2-c2nc(C)nc(N)n2)cn1` (stereo not shown) [Example 321, 4-(2-(6-Methoxypyridin-3-Ylamino)-5-(2,2,2-Trifluoro-1-(4-(Methylsulfonyl)Piperazin-1-yl)Ethyl)Pyridin-3-yl)-6-Methyl-1,3,5-Triazin-2-Amine], the IC50 was 3.09 µM. With `COc1ccc(Nc2ncc([C@@H](O)C(F)(F)F)cc2-c2nc(C)nc(N)n2)cn1` [Example 322, (R)-1-(5-(4-amino-6-methyl-1,3,5-triazin-2-yl)-6-(6-methoxypyridin-3-ylamino)pyridin-3-yl)-2,2,2-trifluoroethanol] the IC50 was 0.599 µM. `COc1ccc(Nc2ncc([C@H](O)C(F)(F)F)cc2-c2nc(C)nc(N)n2)cn1` [Example 323, (S)-1-(5-(4-amino-6-methyl-1,3,5-triazin-2-yl)-6-(6-methoxypyridin-3-ylamino)pyridin-3-yl)-2,2,2-trifluoroethanol] gave an IC50 of 0.379 µM. `COc1ccc(Nc2ncc(C(N)C(F)(F)F)cc2-c2nc(C)nc(N)n2)cn1` (stereo not shown) [Example 324, 4-(5-(1-Amino-2,2,2-Trifluoroethyl)-2-(6-Methoxypyridin-3-Ylamino)Pyridin-3-yl)-6-Methyl-1,3,5-Triazin-2-Amine] was tested, and the IC50 was 1.08 µM. `Cc1nc(N)nc(-c2cc(CN3CCN(S(C)(=O)=O)CC3)cnc2Nc2ccc3ccncc3c2)n1` [Example 326, N-(3-(4-Amino-6-Methyl-1,3,5-Triazin-2-yl)-5-((4-(Methylsulfonyl)Piperazin-1-yl)Methyl)Pyridin-2-yl)Isoquinolin-7-Amine] was tested, and the IC50 was greater than 10 µM. `COc1ncc(Nc2ncc(C(C)N)cc2-c2nc(C)nc(N)n2)cc1F` (stereo not shown) [Example 327, 4-(5-(1-Aminoethyl)-2-(5-Fluoro-6-Methoxypyridin-3-Ylamino)Pyridin-3-yl)-6-Methyl-1,3,5-Triazin-2-Amine] was tested, and the IC50 was 0.917 µM.
